# Antibody variant affinities, Ab-95 light chain, assay 2

Binding partner: SARS-CoV-2 spike HR2 peptide, sequence PDVDLGDISGINAS.

The variants keep the heavy chain, the linker and the frameworks of Ab-95 (scFv order VH, a 15-residue (Gly4Ser)3 linker, VL).
VH: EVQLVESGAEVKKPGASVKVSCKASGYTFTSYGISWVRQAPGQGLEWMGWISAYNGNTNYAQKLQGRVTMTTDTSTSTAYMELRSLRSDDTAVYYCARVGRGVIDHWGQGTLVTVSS
VL: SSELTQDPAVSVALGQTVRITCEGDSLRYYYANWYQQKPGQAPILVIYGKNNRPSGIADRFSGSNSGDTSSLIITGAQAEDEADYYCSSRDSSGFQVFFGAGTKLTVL

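The parent was found by panning a naive human phage display library on the peptide. In library AAYL52, one, two or three CDR residues were substituted; doubles and triples were drawn at random. Affinity was read by AlphaSeq, a pooled yeast mating assay with surface-displayed partners. The frequency of each diploid, read from paired DNA barcodes, reflects how well the two displayed proteins bind. A regression on co-assayed BCL2-family reference pairs converts the normalised counts of each replicate to an apparent Kd. Mating was done three times.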

Each variant's VL is given in full.
Scale: log10 of Kd in nM, estimated from mating counts; low values are strong binders.
An entry "n.d." has no value in the source: the pair was not observed among the diploids in that replicate. This suggests poor binding but is not conclusive.
Empty control strains, which show no peptide, gave a signal in 28% of pairings with library AAYL52; the median was 3.91 and 95% of these signals were weaker than 2.90. No background was subtracted. Also given: how often the same scFv was detected with the empty control strains, with their mean in brackets.
In this assay the parent's reference entry averaged 2.31; its copy inside this library read 2.25.

| VL | log10 Kd (nM) by replicate | control signals |
|---|---|---|
| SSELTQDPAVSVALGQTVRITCEGDSVRYYYANWYQQKPGQAPILVIYGGNNRPSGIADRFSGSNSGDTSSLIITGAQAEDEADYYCSSRDSSGFCVFFGAGTKLTVL | 3.43 2.74 n.d. | 3/9 (3.86) |
| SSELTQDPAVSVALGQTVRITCDGDSLRYYYANWYQQKPGQAPILVIYGGNNRPSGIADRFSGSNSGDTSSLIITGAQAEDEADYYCSSNDSSGFQVFFGAGTKLTVL | 3.13 3.08 3.68 | 1/9 (3.73) |
| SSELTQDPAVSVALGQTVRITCTGDSLRYYYANWYQQKPGQAPILVIYGQNQRPSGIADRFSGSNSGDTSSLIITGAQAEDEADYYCSSRDSSGFQVFFGAGTKLTVL | 1.52 1.49 1.91 | 1/9 (4.40) |
| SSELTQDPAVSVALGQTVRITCEGDSLRYSYARWYQQKPGQAPILVIYGKNNRPSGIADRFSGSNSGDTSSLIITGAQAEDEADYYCSSRDSSGNQVFFGAGTKLTVL | 1.90 2.44 1.84 | 2/9 (3.51) |
| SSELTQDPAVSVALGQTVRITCEGDSLRYYYANWYQQKPGQAPILVIYGKNARPSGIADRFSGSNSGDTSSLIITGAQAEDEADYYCSYRASSGFQVFFGAGTKLTVL | 2.55 3.07 2.77 | 4/9 (4.15) |
| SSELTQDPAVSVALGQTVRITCEGDSLRYYIANWYQQKPGQAPILVIYGKNNRPSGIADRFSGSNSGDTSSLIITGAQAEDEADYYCSSRDSSGADVFFGAGTKLTVL | 3.59 n.d. 3.93 | 3/9 (3.73) |
| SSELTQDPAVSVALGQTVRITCDGDSLRYYYGNWYQQKPGQAPILVIYGKNNAPSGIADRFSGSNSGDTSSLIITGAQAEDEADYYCSSRDSSGFQVFFGAGTKLTVL | 5.60 n.d. n.d. | 2/9 (3.99) |
| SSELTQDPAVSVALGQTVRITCEGDSLRYYYANWYQQKPGQAPILVIYGKMNRPSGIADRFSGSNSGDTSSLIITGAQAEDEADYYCSSRLSWGFQVFFGAGTKLTVL | 5.23 n.d. n.d. | 3/9 (3.60) |
| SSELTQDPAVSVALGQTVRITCEGDSLNYYYACWYQQKPGQAPILVIYGKNNRPSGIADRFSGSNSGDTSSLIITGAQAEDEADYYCSSRDSSGFQWFFGAGTKLTVL | 4.88 4.74 n.d. | 6/9 (4.30) |
| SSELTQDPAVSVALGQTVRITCEGDSLRRDYANWYQQKPGQAPILVIYGKNNRPSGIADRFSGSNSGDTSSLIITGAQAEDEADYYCSSRDSSFFQVFFGAGTKLTVL | 3.03 3.41 3.81 | 3/9 (3.83) |
| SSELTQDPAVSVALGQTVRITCLGDSLRYYYANWYQQKPGQAPILVIYGKNNRPSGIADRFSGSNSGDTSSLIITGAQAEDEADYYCSSRDSKGFQVFFGAGTKLTVL | 2.78 4.70 3.71 | 3/9 (3.29) |
| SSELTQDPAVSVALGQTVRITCEGDSLRYYYANWYQQKPGQAPILVIYGKNIDPSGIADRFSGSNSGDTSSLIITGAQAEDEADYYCSSRDCSGFQVFFGAGTKLTVL | 5.16 n.d. 4.54 | 5/9 (4.19) |
| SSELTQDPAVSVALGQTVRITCEPDSLRYYYANWYQQKPGQAPILVIYGKNNRPSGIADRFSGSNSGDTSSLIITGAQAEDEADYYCSYRDSSGFLVFFGAGTKLTVL | 3.59 4.71 4.03 | 3/9 (3.57) |
| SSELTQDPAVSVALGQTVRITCEHDSLRYYYANWYQQKPGQAPILVIYGVANRPSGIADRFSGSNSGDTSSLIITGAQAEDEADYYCSSRDSSGFQVFFGAGTKLTVL | 3.87 4.13 n.d. | 6/9 (3.87) |
| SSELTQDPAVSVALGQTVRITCVGPSLRYYYARWYQQKPGQAPILVIYGKNNRPSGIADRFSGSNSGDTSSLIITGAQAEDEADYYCSSRDSSGFQVFFGAGTKLTVL | 3.45 3.83 n.d. | 5/9 (3.93) |
| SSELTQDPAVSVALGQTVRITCEGDSLRYYYANWYQQKPGQAPILVIYGKRLRPSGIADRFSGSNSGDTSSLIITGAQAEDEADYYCSSRDSSGFQVFFGAGTKLTVL | 2.84 3.38 n.d. | 1/9 (2.95) |

Picked from the list: the 2 lowest averages where every replicate gave a value.

| VL | log10 Kd (nM) by replicate | control signals |
|---|---|---|
| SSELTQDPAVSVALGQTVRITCTGDSLRYYYANWYQQKPGQAPILVIYGQNQRPSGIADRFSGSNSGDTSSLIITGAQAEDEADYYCSSRDSSGFQVFFGAGTKLTVL | 1.52 1.49 1.91 | 1/9 (4.40) |
| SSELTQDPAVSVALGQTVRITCEGDSLRYSYARWYQQKPGQAPILVIYGKNNRPSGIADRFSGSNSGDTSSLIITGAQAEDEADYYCSSRDSSGNQVFFGAGTKLTVL | 1.90 2.44 1.84 | 2/9 (3.51) |

Data: MIT Lincoln Laboratory AlphaSeq set, Engelhart et al. 2022, doi:10.1038/s41597-022-01779-4, as distributed in FLAb.